A short description of data set [1]: Pharmacokinetic analysis after IV or SC administration in male CD1 mice. How it is done:
Pharmacokinetic parameters of the drugs were calculated by methods of model dependence (for data obtained from IV) and model independence (data obtained from SC).

By UniProt entry, the sequences of proteins in these tests, tags left out. Residues count along the entry.
UniProt P47871, 26-477: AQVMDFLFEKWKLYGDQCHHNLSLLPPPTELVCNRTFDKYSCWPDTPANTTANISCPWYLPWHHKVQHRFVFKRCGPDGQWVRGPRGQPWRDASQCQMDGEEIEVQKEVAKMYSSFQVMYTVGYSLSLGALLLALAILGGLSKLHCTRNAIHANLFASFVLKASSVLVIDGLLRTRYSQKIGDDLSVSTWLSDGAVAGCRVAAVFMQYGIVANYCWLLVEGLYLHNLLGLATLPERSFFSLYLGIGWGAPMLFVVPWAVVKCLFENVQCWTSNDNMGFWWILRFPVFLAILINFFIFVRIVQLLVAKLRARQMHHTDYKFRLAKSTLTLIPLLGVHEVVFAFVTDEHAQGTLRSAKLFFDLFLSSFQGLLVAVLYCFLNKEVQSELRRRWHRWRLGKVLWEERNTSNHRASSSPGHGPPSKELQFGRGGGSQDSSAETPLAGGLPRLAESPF
UniProt P43220, 24-463: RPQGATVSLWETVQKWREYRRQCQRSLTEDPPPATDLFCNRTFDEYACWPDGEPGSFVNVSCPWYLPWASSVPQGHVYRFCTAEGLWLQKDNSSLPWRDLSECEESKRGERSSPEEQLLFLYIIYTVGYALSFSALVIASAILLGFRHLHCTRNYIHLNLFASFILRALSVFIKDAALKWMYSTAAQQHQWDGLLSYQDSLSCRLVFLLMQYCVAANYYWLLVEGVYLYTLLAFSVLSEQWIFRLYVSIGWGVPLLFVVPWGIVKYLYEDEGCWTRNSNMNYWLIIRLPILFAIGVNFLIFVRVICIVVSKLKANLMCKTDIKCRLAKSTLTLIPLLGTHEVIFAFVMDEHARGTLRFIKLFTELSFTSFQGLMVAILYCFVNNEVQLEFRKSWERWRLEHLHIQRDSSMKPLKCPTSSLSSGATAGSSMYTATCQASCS

A further data set addresses T1, human GCGR (Homo sapiens, UniProt P47871).
T1 construct: expressed in transfected cells
In words: In vitro activity on GCGR, CRE-luciferase HEK-293 cells. The format is cell-based. The note with it: read-out: GCGR (EC50), average EC50, HEK-293 cells expressing human GCGR, 12 hours incubation. How it is done:
(§1) 5000 of HEK-293 cells, which are used in CRE-luciferase system and express human GCGR or GLP-1R stably, were inoculated into 384 well plates according to […] DMEM/10% FBS media/well. […] After incubation, […] of luciferase reagent was added directly to each plate and mixed gently for 2 minutes. The plates were placed into an Elmer Perkin plate reader for reading. Concentration curve of the compound was made by drawing software Prism 5, and the EC50 value was calculated.

For another data set, the target named is T2, human GLP-1R (Homo sapiens, UniProt P43220).
T2 construct: expressed in transfected cells
In words: In vitro activity on GLP-1R, CRE-luciferase HEK-293 cells. As to conditions: read-out: GLP-1R (EC50), average EC50, HEK-293 cells expressing human GLP-1R, 12 hours incubation. The format is cell-based. As for the experimental part:
as §1

As a reminder, the EC50 is the concentration needed to bring the measured effect to its halfway point. For the substance “His-Aib-Gln-Gly-Thr-Phe-Thr-Ser-Asp-Lys(PEG2-PEG2-Glu-CO(CH2)14CH3)-Ser-Lys-Tyr-Leu-Asp-Glu-Arg-Arg-Ala-Gln-Asp-Phe-Val-Gln-Trp-Leu-Leu-Asp-Gly-Gly-Pro-Ser-Ser-Gly-Ala-Pro-Pro-Pro-Ser-NH2 [Compound 19]”, the clinical adverse effect entry in data set [1] is given as “no clinical adverse effect”. Besides, the EC50 was 0.56 nM at human GCGR and 0.14 nM on human GLP-1R.

Values taken from patent publication US10479819B2 (priority 2014, dated 2019).
